Source: PubChem BioAssay (National Center for Advancing Translational Sciences (NCATS))
Compounds with a hit are over-represented: about 13% of the library has one in this group of screens.
Sfp inh: Sfp phosphopantetheinyl transferase inhibition. Potency, µM, usual class: inhibitors. 310,000 tested, 3.5% active. Biochemical Sfp PPTase activity, qHTS. AID 1490. Q9F4F7;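 also: the enzyme is Sfp with the accession as filed and its product quenches rhodamine fluorescence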
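Reaction rates are the 30-min fluorescence difference (ex 525, em 598 nm) in wells containing 15 nM Sfp, 5 uM rhodamine-CoA and 12.5 uM BHQ-2-YbbR at pH 7.6 with 10 mM MgCl2.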
miR-21 reporter: miR-21 reporter, rising signal; HeLa miR-21 FLuc reporter, luciferase, 48 h; Potency, µM (highest dose often 38.3 µM); 340,000 tested, under 10 active; AID 2288; active = well fitted rising curve with a large enough effect; inconclusive = small, poorly fitted or top-dose-only effect; inactive = no such curve, though single readings can be large or run the other way;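 further: miR-21 action dims this reporter so a rising signal means less miR-21 action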
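Compounds were titrated across several concentrations (up to approximately 40 uM) and incubated 48 hours with HeLa miR-21-FLuc reporter cells (miR-21 target sequence downstream of FLuc, endogenous miR-21). Readout was firefly luciferase luminescence after lytic detection reagent.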
ALDH1A1 block: ALDH1A1 (human) enzyme inhibition | AID 1030 | Purified ALDH1A1, NADH fluorescence, propionaldehyde substrate | Potency, µM (titrated, usually from 75.3 µM), hits mostly inhibitors | 220,000 tested, 7.3% active | P00352; active = well fitted inhibition curve with a large enough effect, not every such curve was filed as active; inconclusive = small, poorly fitted or top-dose-only effect, or another doubt; inactive = no such curve, though single readings can be large or run the other way
JMJD2E inh: blocks human JMJD2E demethylase activity. JMJD2E catalytic domain, FDH-coupled NADH fluorescence (FDH is formaldehyde dehydrogenase). Potency, µM (highest dose often 57.1 µM), usual class: inhibitors. 230,000 tested, 1.6% active. AID 2147; active = well fitted inhibition curve with a large enough effect, not every such curve was filed as active; inconclusive = small, poorly fitted or top-dose-only effect, or another doubt; inactive = no such curve, though single readings can be large or run the other way; also: nearly all actives have a fitted effect of over 50% in size
G9a inh: inhibitors of human histone lysine methyltransferase G9a; Q96KQ7; G9a H3K9 monomethylation, AlphaScreen, 2 h; Potency, µM (top dose mostly 102 µM), most hits filed as inhibitors; 350,000 tested, 8.8% active; AID 504332; also: nearly all actives have a fitted effect of over 75% in size
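Methyltransferase reactions run at room temperature for 2 h (20 nM enzyme, 500 nM biotin-H3K9 peptide, 20 uM SAM) after a 15 min compound preincubation; product detected by AlphaScreen beads and anti-H3K9me1 antibody.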
LMNA splice mod: changes lamin A minigene splicing in HeLa cells. HeLa LMNA splicing GFP/RFP minigene ratio, 48 h. Potency, µM (highest dose often 46.1 µM), actives largely listed as inhibitors. AID 1487. 200,000 tested, 0.01% active; active = well fitted inhibition curve with a large enough effect in the signal ratio, with a control signal flat, not every such curve was filed as active; inconclusive = small, poorly fitted or top-dose-only effect, or effect the other way, or a change in a side signal; the % refers to the signal ratio
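Read-out is the ratio of GFP to DsRed2 object intensity, acquired by 488 nm laser-scanning cytometry on HeLa lamin A-EGFP minigene reporter cells. Compound incubation 48 hrs at 37 °C in Opti-MEM with 2% FBS; DMSO 0.5% final.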
Hits are given with their value. Unless noted, calls follow the shape of the dose curve; as a rule, active = well fitted curve in the direction sought with a large enough effect; inconclusive = small, poorly fitted or top-dose-only effect, or another doubt; inactive = no such curve, though single readings can be large; an effect the other way counts as inactive or inconclusive.

Cc1ccc(S(=O)(=O)N2CCC(C(=O)OC(C)C(=O)N3CCOCC3)CC2)cc1 (stereo not drawn) was read as G9a inh inactive.
CC(OC(=O)C1CCN(S(=O)(=O)c2ccc(C(C)(C)C)cc2)CC1)C(=O)N1CCOCC1 (stereo not drawn) was read as G9a inh 17.8µM.
Screening COC(=O)C1CCC(=S)N1C(=O)c1ccccc1 (stereo not drawn) returned Sfp inh inconclusive, miR-21 reporter inactive and G9a inh 44.7µM.
`COC(=O)[C@H]1CN(C(=O)c2ccccc2)C(=O)N1` gave Sfp inh inactive and miR-21 reporter inactive.
Screening COc1ccc(OC)c(C2C(C(=O)Nc3ccc(C)cc3C)=C(C)Nc3c(C(=O)Nc4ccc(F)cc4)cnn32)c1 (stereo not drawn) returned miR-21 reporter inactive, G9a inh inactive and LMNA splice mod inactive.
CCOC(=O)C1CCN(C(=O)c2c(C)oc3c2C(=O)c2ccccc2C3=O)CC1 was read as Sfp inh inactive, miR-21 reporter inactive, ALDH1A1 block inactive, JMJD2E inh inactive, G9a inh 50.1µM and LMNA splice mod inconclusive.
For Cc1oc2c(c1C(=O)N1CCC(C)CC1)C(=O)c1ccccc1C2=O the results were Sfp inh inactive, miR-21 reporter inactive, ALDH1A1 block inconclusive, JMJD2E inh inactive, G9a inh inconclusive and LMNA splice mod inconclusive.
`O=C(O)CCNC(=O)/C(=C/C=C/c1ccccc1)NC(=O)c1ccccc1` gave Sfp inh inactive, miR-21 reporter inactive, ALDH1A1 block inactive, JMJD2E inh inactive and G9a inh 39.8µM.
For O=C(Nc1ccc(C(=O)O)cc1)/C(=C\C=C\c1ccccc1)NC(=O)c1cccc(Br)c1 the results were Sfp inh inactive, miR-21 reporter inactive, ALDH1A1 block inconclusive, JMJD2E inh inactive and G9a inh 39.8µM.
CCCN1Cc2cccc(C(=O)Nc3ccc(OC)cc3OC)c2C1=O was read as miR-21 reporter inactive and G9a inh inactive.
For O=C(N/N=C/C(Cl)=C/c1ccc([N+](=O)[O-])cc1)C(=O)Nc1ccc(C(=O)O)cc1 the results were Sfp inh inconclusive, miR-21 reporter inactive, ALDH1A1 block inactive, JMJD2E inh inactive and G9a inh 50.1µM.
Screening O=C(N/N=C/C(Cl)=C/c1ccc([N+](=O)[O-])cc1)C(=O)Nc1ccccc1C(=O)O returned Sfp inh 35.5µM, miR-21 reporter inactive, ALDH1A1 block inconclusive, JMJD2E inh inactive and G9a inh 35.5µM.
O=C(N/N=C/C(Cl)=C/c1ccccc1)c1ccccc1F was read as Sfp inh inactive, miR-21 reporter inactive and G9a inh 31.6µM.
CCOc1ccccc1NC(=O)C(=O)N/N=C/c1ccc([N+](=O)[O-])cc1 was read as Sfp inh inactive, miR-21 reporter inactive, ALDH1A1 block inactive, JMJD2E inh inactive, G9a inh inactive and LMNA splice mod inactive.
For Cc1ccc(C)n1CCN1CCN(C(=O)CC#N)CC1 the results were Sfp inh inactive, miR-21 reporter inactive, ALDH1A1 block inconclusive, JMJD2E inh inconclusive, G9a inh inconclusive and LMNA splice mod inactive.
For Cc1cc(C)c(C)c(OCCCn2ccnc2)c1 the results were Sfp inh inactive, miR-21 reporter inactive, ALDH1A1 block inconclusive, JMJD2E inh inconclusive, G9a inh 8.91µM and LMNA splice mod inactive.
`Cc1cc(C(C)(C)C)ccc1OCCn1ccnc1` gave Sfp inh inactive, miR-21 reporter inactive, ALDH1A1 block inactive, JMJD2E inh inactive, G9a inh 22.4µM and LMNA splice mod inconclusive.
`Cc1cc(C)c(OCCCn2ccnc2)c(C)c1` gave Sfp inh inactive, miR-21 reporter inactive and G9a inh inactive.
For Cc1ccc(OCCCCn2ccnc2)c([N+](=O)[O-])c1 the results were Sfp inh 56.2µM, miR-21 reporter inactive, ALDH1A1 block 1.58µM and JMJD2E inh inactive.
`Cc1ccc(OCCCCn2ccnc2)c(Cl)c1` gave Sfp inh inactive, miR-21 reporter inactive, ALDH1A1 block inactive, JMJD2E inh inactive, G9a inh inactive and LMNA splice mod inactive.
